Columns and labels:
[1] = tested on: cultured hippocampal neurons; assay: Neuronal death by LDH assay, NMDA excitotoxicity; format: cell-based, rat; conditions: peptide treatment
Method: (§1) Dissociated cultures of rat cortical or hippocampal neurons were prepared from 18-d-old Sprague Dawley rat embryos as described previously (Mielke and Wang 2005). To obtain mixed cultures enriched with neurons, uridine (10 μM) and 5-Fluor-T-deoxyuridine (10 μM) were added to the culture medium at 3 d in vitro (DIV) and maintained for 48 h to inhibit non-neuronal cell proliferation before the cultures were returned to the normal culture medium. Mature neurons (12-14 DIV) were used for experiments. […]
(§2) Necrotic neuronal death was quantified by measuring lactate dehydrogenase (LDH) release 20 h after treatments using a Cyto Tox™ 96 assay kit (Promega™, Madison, Wis.). Absorbance readings were measured using a spectrophotometric microplate reader. Apoptotic neuronal death was determined by visualizing the nucleus condensation and fragmentation of neurons stained with Hoechst-33342™. Images were taken with a Leica DMIRE2™ fluorescence microscope. […] These observations were quantified by double-blind counting of apoptotic and total neurons in each visual field and expressed as percentage apoptosis. […] Data are expressed as the difference in apoptosis relative to control and are expressed as a percentage.

[2] = tested on: cultured hippocampal neurons; assay: Neuronal death by nuclei staining (Hoechst 33342), NMDA excitotoxicity; format: cell-based, rat; conditions: peptide treatment
Method: as §1, §2

Question: How did the “NMDAR-mediated cell death, LDH assay” value [1] turn out when KEIVSRNKRRYQED-YGRKKRRQRRR was run?
Answer: significantly prevents

Question: What about the “NMDAR-mediated cell death, nuclei staining” value [2] of the same substance?
Answer: significantly prevents
